The target in the experiment is 5-hydroxytryptamine receptor 4 (Homo sapiens, UniProt Q13639).

Amino acid sequences for entries named in this document (tags omitted). A change or cut given only in a name is not applied to a line headed by its entry.
UniProt Q13639: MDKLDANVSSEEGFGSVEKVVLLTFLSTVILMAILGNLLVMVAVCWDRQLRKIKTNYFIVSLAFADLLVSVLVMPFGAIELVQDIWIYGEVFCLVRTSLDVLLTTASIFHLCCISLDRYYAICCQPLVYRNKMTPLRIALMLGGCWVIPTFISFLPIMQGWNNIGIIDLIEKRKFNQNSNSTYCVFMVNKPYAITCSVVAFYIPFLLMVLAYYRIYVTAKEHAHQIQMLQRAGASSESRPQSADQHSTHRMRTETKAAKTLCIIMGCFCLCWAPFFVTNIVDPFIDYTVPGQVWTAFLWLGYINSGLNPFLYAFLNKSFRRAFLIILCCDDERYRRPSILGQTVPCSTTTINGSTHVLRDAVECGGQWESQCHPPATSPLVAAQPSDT

SMILES strings stand for the structures.

What is called Ki is the dissociation constant of the complex between target and ligand, obtained from inhibition or displacement. Low readings indicate tighter binding, high ones weaker binding. With `COc1cc(N)c(Cl)cc1C(=O)NC1CCN2CCCC1C2` (stereo unspecified) [NSC_3035240], the Ki came out at 200 nM.

These data come from BindingDB's records for doi:10.1007/s002100000299 (University of Oslo, 2001).
